Data on one substance can be found in paper PMC8215300.

The chains behind the UniProt entries cited, without tags or fusion partners. Residues count along the entry.
UniProt P61073, whole entry: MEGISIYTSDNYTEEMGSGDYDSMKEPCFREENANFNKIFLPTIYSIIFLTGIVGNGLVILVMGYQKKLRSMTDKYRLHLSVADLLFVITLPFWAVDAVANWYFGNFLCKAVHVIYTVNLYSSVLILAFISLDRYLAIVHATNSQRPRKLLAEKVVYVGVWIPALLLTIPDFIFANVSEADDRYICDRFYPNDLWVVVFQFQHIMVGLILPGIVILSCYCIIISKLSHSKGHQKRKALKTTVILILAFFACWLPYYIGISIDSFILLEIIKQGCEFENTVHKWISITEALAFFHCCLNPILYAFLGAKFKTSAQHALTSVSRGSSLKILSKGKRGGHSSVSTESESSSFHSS
UniProt P48061, 22-89: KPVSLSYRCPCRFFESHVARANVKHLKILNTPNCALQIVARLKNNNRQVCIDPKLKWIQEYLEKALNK

The assay deals with chemokine receptor CXCR4 (human (endogenous in DU145, PC3 and HEK293)) (UniProt P61073).

With “Human stromal cell–derived factor 1α (from UniProt P48061-2 22-89) (ligand)”, the ARF1 activation by SDF1α (0–200 ng/ml) in DU145 cells, GST fusion protein pulldown of active ARF1, EC50 came to 6.3 nM; the ARF1 activation by SDF1α (0–200 ng/ml) in HEK293 cells, GST fusion protein pulldown of active ARF1, EC50 is 4.1 nM; the ARF1 activation by SDF1α (0–200 ng/ml) in PC3 cells, GST fusion protein pulldown of active ARF1, EC50 amounted to 7 nM.
